Laboratory results as given in ChEMBL document CHEMBL1811886 (J Med Chem, 2011).

Sequences of proteins named here, by UniProt entry; tags and fusion partners are left off. A change or cut given only in a name is not applied to a line headed by its entry.
UniProt Q9QYN8: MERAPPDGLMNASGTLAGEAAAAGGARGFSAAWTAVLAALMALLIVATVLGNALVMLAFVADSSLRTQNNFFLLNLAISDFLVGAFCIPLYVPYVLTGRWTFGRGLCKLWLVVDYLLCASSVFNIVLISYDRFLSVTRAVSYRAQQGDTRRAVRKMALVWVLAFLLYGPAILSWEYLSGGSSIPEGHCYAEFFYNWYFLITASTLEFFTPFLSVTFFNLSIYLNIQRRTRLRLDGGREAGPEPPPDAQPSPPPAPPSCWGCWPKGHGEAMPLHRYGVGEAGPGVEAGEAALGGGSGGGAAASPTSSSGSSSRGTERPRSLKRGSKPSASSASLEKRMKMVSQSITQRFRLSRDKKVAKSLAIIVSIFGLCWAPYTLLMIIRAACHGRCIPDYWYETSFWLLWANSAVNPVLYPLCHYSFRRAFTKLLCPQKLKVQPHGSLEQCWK

Biological target: Histamine H3 receptor (Rattus norvegicus, UniProt Q9QYN8)
Experiment: Displacement of [3H]NAMH from rat histamine H3 receptor expressed in CHO cells
Assay type: cell-based

Ki: 0.031 µM
Structure (SMILES): C[C@@H]1CCCN1CCc1cc2cc(-c3ccc(C#N)cc3)ccc2o1
